The test system of assay [1] is caspase-3 and similar DEVD-cleaving proteases in cell extracts treated with cyto c. The experiment in a line: Cell-free caspase activation induced by cyto c in HEK 293 cytosolic extracts. It is filed as biochemical, human. The procedure:
(§1) Caspase activity was assayed by release of 7-amino-4-trifluoromethyl-coumarin (AFC) from Ac-DEVD or Ac-LEHD-containing synthetic peptides (Calbiochem) using continuous-reading instuments as described (Quan, L. T. et al., (1995) J. Biol. Chem. 270:10377-10379).
(§2) Cytosolic extracts were prepared as described (Deveraux, Q., Takahashi, R., Salvesen, G. S. & Reed, J. C. (1997) Nature 388, 300-303) using human embryonic kidney (HEK) 293 cells. Cells were washed with ice-cold buffer A (20 mM HEPES pH 7.5, 10 mM KCl, 1.5 mM MgCl2, 1 mM EDTA and 1 mM DTT), suspended in 1 volume of buffer A, incubated on ice for 20 mins, and then disrupted by 15 passages through a 26-gauge needle. Cell extracts were purified by centrifugation at 15000 g for 12 mins and supernatants were stored at −80 ° C. For initiating caspase activation, either 100 nM of purified recombinant caspase-8 or 1 μM horse heart cytochrome c (Sigma) together with 1 mM dATP was added to extracts (Deveraux, Q. L., et al., (1998) EMBO J. 17, 2215-2223).
(§3) To further explore the mechanisms by which SfIAP and CpIAP inhibit mammalian apoptosis, a cell-free system in which exogenously added active caspase-8 or cyto c induces activation of caspase-3 and similar proteases, as measured by hydrolysis of Ac-DEVD-AFC (Quan, L. T. et al., (1995) J. Biol. Chem. 270, 10377-10379) was used. […]

The next assay concerns the target T1, pro-caspase-9 (Homo sapiens, UniProt P55211).
T1 construct: host or cells: cell-free in vitro transcription/translation
T1 sequence (P55211 1-416): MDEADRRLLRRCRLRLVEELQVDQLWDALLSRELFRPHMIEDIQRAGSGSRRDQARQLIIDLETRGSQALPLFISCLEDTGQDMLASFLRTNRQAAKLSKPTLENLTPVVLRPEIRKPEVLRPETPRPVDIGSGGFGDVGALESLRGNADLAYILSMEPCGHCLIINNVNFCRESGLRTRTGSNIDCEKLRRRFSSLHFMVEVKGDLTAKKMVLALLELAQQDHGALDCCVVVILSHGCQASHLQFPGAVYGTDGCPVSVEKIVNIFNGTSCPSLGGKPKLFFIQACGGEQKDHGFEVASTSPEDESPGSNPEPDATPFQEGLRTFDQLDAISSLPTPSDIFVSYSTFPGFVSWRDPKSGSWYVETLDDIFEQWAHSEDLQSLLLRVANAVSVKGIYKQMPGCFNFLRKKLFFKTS
The experiment in a line: GST pull-down binding of [35S]-pro-caspase-9. The note with it: GST fusion protein on glutathione-Sepharose. Further details: species or system mammalian. Here is the method: [^35S]Pro-caspase-9 was in vitro transcribed and translated in the presence of [^35S]L-methionine using TNT kit from Promega. Protein were desalted and exchanged into buffer (20 mM HEPES pH 7.5, 10 mM KCl, 1.5 mM MgCl2, 1 mM EDTA and 1 mM DTT) with Bio-spin P-6 columns (Bio-Rad). […] After incubation at 4 ° C. for 1 hour, beads were removed by centrifugation and washed twice with 0.5 ml of 50 mM Tris (pH 7.5), 150 mM NaCl, 2 mm DTT before analysis by SDS-PAGE and autoradiography.

Assay [2] concerns caspase-9-induced caspase activation and apoptosis in 293T cells. The experiment in a line: Caspase-9 overexpression in 293T cells: caspase activity and apoptosis. The note with it: 24-36 hours after transfection. It is filed as cell-based, human. Here is the method: (§4) HEK293 and 293T cells were maintained in DMEM (Irvine Scientific) supplemented with 10% fetal bovine serum, 1 mM L-glutamine and antibiotics. 293 cells (10^6) were co-transfected using Superfect with 0.1 μg Green Fluoresence Protein (GFP) marker plasmid pEGFP (Clontech), 0.25 ug of either pcDNA3-Bax or pcDNA3-Fas, and 1.5 μg of either pcDNA3myc-SfIAP or pcDNA3myc-CpIAP. Alternatively, cells were co-transfected with 0.35 μg pcDNA3-caspase-9-Flag and 2.1 μg of either SfIAP or CpIAP. […] In some cases, lysates were prepared from transfected cells, normalized for total protein content, and analyzed by SDS-PAGE/immunoblotting as described (Deveraux, Q., et al., (1997) supra; Deveraux, Q. L., et al. (1998) supra; Roy, N. et al. (1997) supra; Takahashi, R., et al., (1998), supra.).
To test this hypothesis, 293T cells were transfected with plasmids encoding pro-caspase-9 alone or in combination with SfIAP and CpIAP. Caspase activity and apoptosis were then assayed 24-36 hours later.

Assay [3] deals with Fas-induced apoptosis in HEK293 cells. Put plainly: Fas-induced apoptosis in HEK293 cells (co-transfection, DAPI nuclear morphology). It is filed as cell-based, human. The note with it: IAP plasmid co-transfected with Fas into HEK293 cells; % apoptosis 24-36 hours later. Here is the method:
as §4
(§5) Baculoviral IAPs have been reported to protect mammalian cells from some apoptotic stimuli (Hawkins, C. J. et al., (1996) Proc. Natl. Acad. Sci. USA 93, 13786-13790; Hawkins, C. et al., (1998) Cell Death and Differentiation 5, 569-576; Uren, A. G. et al., (1996) Proc. Natl. Acad. Sci. USA 93, 4974-4978). Tests were performed to determine whether SfIAP is also capable of functioning as an apoptosis suppressor in a mammalian cell context. […]
(§6) Plasmids encoding various IAPs were co-transfected with Bax or Fas into 293 cells and % apoptosis was determined 24-36 hours later. […]

In assay [4] the test system is DEVD-cleaving proteases in cell extracts treated with caspase-8. Put plainly: Cell-free caspase activation induced by active caspase-8 in HEK 293 cytosolic extracts. It is filed as biochemical, human. The note with it: caspase-8-treated extracts. Here is the method: as §1, §2, §3
Assay [5] relates to Bax-induced apoptosis in HEK293 cells. Put plainly: Bax-induced apoptosis in HEK293 cells (co-transfection, DAPI nuclear morphology). It is filed as cell-based, human. The note with it: IAP plasmid co-transfected with Bax into 293 cells; % apoptosis 24-36 hours later. Here is the method:
as §4, §5, §6

This note sets out measurements from US6570069B1, “Nucleic acids encoding plant inhibitors of apoptosis and transgenic cells and plants expressing them” (priority 2000, dated 2003).

On to “XIAP: human IAP, included as a positive control”, for which the “suppression of pro-caspase-3 processing (immunoblot)” value in assay [1] (cyto c-treated extracts) and in assay [4] was “suppressed in both cases” throughout. Also, the “effect on hydrolysis of Ac-DEVD-AFC (caspase activity)” value in assay [1] (recombinant protein, cell extracts treated with cyto c) is “completely blocked the hydrolysis of Ac-DEVD-AFC”. The “binding to pro-caspase-9 (autoradiography)” value with pro-caspase-9 was “associated with pro-caspase-9”. In assay [2], the “inhibition of caspase-9-induced apoptosis” value was “inhibited caspase-9-induced apoptosis”. Besides, the “suppression of activation of downstream DEVD-cleaving caspases induced by overexpression of caspase-9” value in assay [2] is recorded as “markedly suppressed activation of downstream DEVD-cleaving caspases”. In addition, in assay [3], the “suppression of Fas-induced apoptosis” value was “did protect against Fas”. Besides, in assay [5], the “suppression of Bax-induced apoptosis” value is “inhibited Bax-induced apoptosis”.
